SMILES strings stand for the structures. Values joined by “and” are separate entries in the source; they are usually repeats but may differ in a detail not shown here. Equal entries are not always repeated. The list shows a part of the results, in another mix than the full data. Where a structure was tested more than once in an assay, its records may differ in their call. Active and inactive are the calls of the source. Rule for the calls: active = hit-call score of the fitted dose curve at least 0.9, where 1 is the maximum; inactive = score below 0.9.

The nature of the assay: ATG_PPRE_CIS: Attagene CIS-FACTORIAL HepG2 Assay for human Peroxisome Proliferator-activated Response Element (PPRE) (AID 2282958). The settings on record: HepG2 PPRE cis-element reporter, Attagene transcription factor profiling; actives raise or lower the signal.
As to `CC(=O)C=C(C)C`, the compound was called inactive.

As to `CCN(CC)C(=O)SCc1ccc(Cl)cc1`, the AC50 was active: 33.9 µM. For the compound `CC(c1ccc(O)cc1)c1ccc(O)cc1`, the AC50 is active: 100 µM. For `Nc1ccccc1C(=O)Oc1ccc2ccccc2c1`, the outcome was inactive. Still for that read-out and setting: with `C/C(=N\NC(=O)Nc1cc(F)cc(F)c1)c1ncccc1C(=O)O` the entry was “inactive”.

On to `CC(C)N(C(=O)CCl)c1ccccc1`, for which the compound was called inactive. For the compound `[O-][Cl+2]([O-])O`, the result was inactive. Turning to `COc1ccccc1N`, the result was inactive. Still for that read-out and setting: with `Cc1ccc(N)cc1` the entry was “inactive”.

On to `COc1cc(Cl)c(OC)cc1Cl`, for which the AC50 was active: 14.4 µM. For `NNc1ccccc1`, the compound was classed as inactive. On to `COc1ccc(O)c(C(C)(C)C)c1`, for which the AC50 was active: 58.6 µM.

In the case of `Cc1cc(Cl)ccc1OCC(=O)O`, the compound was called inactive and the AC50 was active: 21.4 µM. In the case of `COc1ccc(-c2ccccc2)cc1NNC(=O)OC(C)C`, the AC50 is active: 16.3 µM. Consider `c1ccc(OP(Oc2ccccc2)Oc2ccccc2)cc1`, for which the result was inactive. For the compound `C[C@@H](Oc1ccc(Cl)cc1Cl)C(=O)O`, the AC50 is active: 42.7 µM. As for `CC(C)=CC1C(C(=O)OCN2C(=O)C3=C(CCCC3)C2=O)C1(C)C` (centres undefined), the result was inactive. As to `c1ccc(N=Nc2ccccc2)cc1`, the AC50 was active: 26.3 µM. With `CCCCN(CCCC)N=O`, the result was inactive. With `CCOP(=S)(OCC)SCn1c(=O)oc2cc(Cl)ccc21`, the AC50 is active: 20.7 µM. Turning to `C=CCC1=C(C)C(OC(=O)C2C(C=C(C)C)C2(C)C)CC1=O` (centres undefined), the result was inactive and the AC50 was active: 13.7 µM [middle of 4 runs]. For `COC(=O)c1ccccc1S(=O)(=O)NC(=O)Nc1nc(C)cc(C)n1`, the result was inactive.

For `CNC(=O)O/N=C/C(C)(C)S(C)(=O)=O`, the result was inactive.

Consider `CC(C)CCCCCCCOC(=O)c1ccccc1C(=O)OCCCCCCCC(C)C`, for which the compound was called inactive.

On to `O=C(O)c1cc(Oc2ccc(C(F)(F)F)cc2Cl)ccc1[N+](=O)[O-]`, for which the AC50 was active: 30.1 µM. `CCC(C)(c1ccc(O)cc1)c1ccc(O)cc1`: the outcome was inactive and the AC50 is active: 50.2 µM. For `CCCC=NO`, the result was inactive. Regarding `CC[C@H](C)[C@H]1O[C@]2(C=C[C@@H]1C)C[C@@H]1C[C@@H](C/C=C(\C)[C@@H](O[C@H]3C[C@H](OC)[C@@H](O[C@H]4C[C@H](OC)[C@@H](O)[C@H](C)O4)[C@H](C)O3)[C@@H](C)/C=C/C=C3\CO[C@@H]4[C@H](O)C(C)=C[C@@H](C(=O)O1)[C@]34O)O2` (tested in a mixture with another compound), the outcome was inactive. On the same count and under the same terms, the same measure for `CCCCCCC1CCOC1=O` (centres undefined): “inactive”; for `Clc1cccc(C(Cl)(Cl)Cl)n1`: “inactive”.

Regarding `CN(C)[C@@H]1C(=O)C(C(N)=O)=C(O)[C@@]2(O)C(=O)C3=C(O)c4c(O)cccc4[C@@](C)(O)[C@H]3[C@H](O)[C@@H]12`, the result was inactive. The same measure, in the same setting: the same measure for `CCc1cccc(C)c1N(C(=O)CCl)C(C)COC` (centres undefined): “inactive”. Regarding `CSc1nc(NC(C)C)nc(NC(C)C)n1`, the AC50 was active: 38.5 µM. Turning to `C[N+](C)=CCl`, the compound was classed as inactive.

With `CCCCOC(=O)c1ccccc1C(=O)OCCCC`, the call was inactive; the AC50 is active: 55.6 µM and active: 100 µM and active: 50 µM.

As usually defined, the AC50 is the midpoint of the concentration-response curve, whichever way the signal moves.

Values taken from PubChem BioAssay (EPA / NIEHS).
